Data on 1 molecule can be found in US8053450B2, “Amino-benzazoles as P2Y1 receptor inhibitors with pyridine ring and heterocyclic components” (Bristol-Myers Squibb Company, priority 2004, dated 2011).

Chains of the proteins cited; added tags and fusions are not shown. Lines headed by an entry give the natural chain unless they say otherwise; changes in a name come on top.
UniProt P47900: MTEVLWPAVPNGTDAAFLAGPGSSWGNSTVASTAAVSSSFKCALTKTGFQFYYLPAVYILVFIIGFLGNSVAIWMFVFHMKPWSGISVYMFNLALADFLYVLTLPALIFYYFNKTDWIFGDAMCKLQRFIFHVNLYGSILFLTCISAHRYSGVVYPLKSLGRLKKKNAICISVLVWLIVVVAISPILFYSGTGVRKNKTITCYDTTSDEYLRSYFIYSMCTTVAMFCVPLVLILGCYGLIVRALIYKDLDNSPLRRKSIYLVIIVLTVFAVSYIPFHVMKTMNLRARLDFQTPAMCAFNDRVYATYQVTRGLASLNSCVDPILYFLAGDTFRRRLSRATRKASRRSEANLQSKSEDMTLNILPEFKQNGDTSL

The test deals with T1, cloned human P2Y1 receptors (Homo sapiens, UniProt P47900).
T1 construct: expressed in transfected cells
Kind of test: P2Y1 membrane binding assay ([33P] 2MeS-ADP displacement). The conditions noted are these: radioligand Kd used in the Cheng-Prusoff calculation; read-out: Kd for 2MeS-ADP to the P2Y1 receptor. An excerpt:
A membrane binding assay was used to identify inhibitors of [^33P] […] The cDNA clone for human P2Y1 was obtained from Incyte Pharmaceuticals and its sequence confirmed by established techniques (for a compendium of techniques used see Ausubel, F. et al. Current Protocols in Molecular Biology 1995 John Wiley and Sons, NY, N.Y.). The essential coding sequences were subcloned into pCDNA 3.1 (Invitrogen) to produce a P2Y1 expression construct. This construct was then transfected into the human embryonic kidney cell line HEK-293 and stable transfectants selected in Genetcin® (G418 sulfate; Life Technologies). […] Membranes were prepared by growing HEK293 #49 in 150 mm dishes in DMEM/10% FBS in the presence of 1 mg/ml G418 until cells were 80-90% confluent. Plates were then washed with cold (4° C.) D-PBS twice and cells harvested by scraping into 10 mL D-PBS. Cells were pelleted by centrifugation (1,000 g, 10 min, 4° C.) and the resulting pellet resuspended in Lysis Buffer (10 mM Tris (7.4), 5 mM MgCl2 containing Complete® protease inhibitor cocktail (Roche Cat #1873580) as recommended by the manufacturer). […]
Reactions were allowed to proceed to completion at room temperature for 1 hour and then the aqueous solution aspirated. Plates were sealed and the residual [^33P] bound to the plate determined by scintillation counting.

As a reminder, the Kd is the constant that tells how readily two partners part at equilibrium.

`CSc1nc(N)c2ncn([C@@H]3O[C@H](COP(=O)(O)OP(=O)(O)O)[C@@H](O)[C@H]3O)c2n1` [Example 2MeS-ADP, 2MeS-ADP]: the Kd was 1.4 nM.
